In US20040018971A1 (published 2004):

What was measured:
[1] = target: HLA-A*0202 (human); test: competition with 125I probe peptide for purified HLA
[2] = target: HLA-A*0203 (human); test: as above
[3] = target: HLA-A*0206 (human); test: as above
[4] = target: HLA-A*0202 (human); test: competition with 125I-labelled probe peptide for purified HLA, gel filtration
[5] = target: HLA-B*5401 (human); test: competition with 125I probe peptide, purified HLA
[6] = target: HLA-B*3501 (human); test: competition vs 125I-labeled standard peptide, purified HLA
[7] = target: HLA-B*3501 (human); test: competition vs 125I-labelled probe peptide, purified HLA, gel filtration
[8] = target: HLA-B*5401 (human); test: as above
[9] = target: T1, HLA-A*0101 (human); test: inhibition of 125I-labeled probe peptide binding to purified HLA-A*0101, gel filtration
T1 construct: also called HLA-A1

[10] = target: T2, HLA-A*0206 (human); test: competition for purified HLA vs 125I-labelled probe peptide, gel filtration
T2 construct: purified HLA class I molecule

[11] = target: T3, HLA-A*0202 (human); test: as above
T3 construct: purified HLA class I molecule

B1: Her2/neu.952 (10-mer) YMIMVKCWMI (peptide)
peptide: YMIMVKCWMI
- IC50 [1]: 307 nM

B2: Her2/neu.952 (9-mer) YMIMVKCWM (peptide)
peptide: YMIMVKCWM
- IC50 [2]: 625 nM

B3: Her2/neu.5B3V9 ALBRWGLLV (peptide)
peptide: ALBRWGLLV
modifications: B at position 3 = alpha-amino butyric acid
- IC50 [3]: 285 nM

B4: Her2/neu.952 (10-mer) (peptide)
peptide: YMIMVKCWMI
notes: Synthetic wild-type 10-mer starting at position 952 of HER2/neu
- IC50 [4]: 307 nM

B5: Her2/neu.600.I11 (peptide)
peptide: CPSGVKPDLSI
notes: analog peptide
- IC50 [5]: 625 nM

B6: Her2/neu.600.F1I11 (peptide)
peptide: FPSGVKPDLSI
notes: analog peptide
- IC50 [5]: 208 nM

B7: Her2/neu.706.F1I10 (peptide)
peptide: FPNQAQMRII
notes: 10-mer analog of the HER2/neu peptide starting at position 706
- IC50 [6]: 514 nM

B8: Her2/neu.995.F1I10 (peptide)
peptide: FPASPLDSTI
notes: 10-mer analog of the HER2/neu peptide starting at position 995
- IC50 [7]: 514 nM

B9: Her2/neu.1101.F1 (peptide)
peptide: FPTHDPSPL
- IC50 [8]: 208 nM

B10: Her2/neu 1214.D3 (peptide)
peptide: SPDFDNLYY
notes: HER2/neu analog peptide
- IC50 [9]: 73.5 nM

B11: Her2/neu.5.B3V9 (peptide)
peptide: ALBRWGLLV
modifications: B at position 3 = alpha-amino butyric acid
notes: analog of Her2/neu.5; also called ALBRWGLLV
- IC50 [10]: 285 nM

B12: Her2/neu.952 (peptide)
peptide: YMIMVKCWMI
notes: 10-mer
- IC50 [11]: 307 nM
